# Experimental data as given in paper PMC10769034, “Aromatic oil from lavender as an atopic dermatitis suppressant” (PLOS ONE, 2024).
# Values joined by “and” are separate entries in the source; they are usually repeats but may differ in a detail not shown here. Equal entries are not always repeated.
# System: CD86 on U937 cells
# Assay: Dendritic cell activation assay (CD86 by flow cytometry, OECD TG442E)
# Settings: 50 µg/mL, Experiment 2, 48 h; control printed for each of three test series
substance,measurement,value
Trinitrobenzenesulfonic acid,CD86+ FL1 positivity (%),29.2% and 35.7% and 47.9%
same,S.I. (%),342.2% and 266.8% and 399.9%
